# System: HLA-B44 supertype molecules
# Experiment: HLA-B44 supertype cross-binding
# Parameters: species or system human
# Settings: MAGE2-derived B44 peptides, Table 29; number of the six B44 supertype alleles bound
row,SMILES,Degeneracy
1,CC[C@H](C)[C@H](NC(=O)CNC(=O)[C@H](Cc1ccccc1)NC(=O)[C@@H](NC(=O)[C@H](CC(C)C)NC(=O)[C@H](CCC(N)=O)NC(=O)[C@H](CC(C)C)NC(=O)[C@H](Cc1ccc(O)cc1)NC(=O)[C@H](CCC(=O)O)NC(=O)[C@@H](N)CO)C(C)C)C(=O)O [compound 650],6
2,CC[C@H](C)[C@H](NC(=O)CNC(=O)[C@H](Cc1ccccc1)NC(=O)[C@@H](NC(=O)[C@H](CC(C)C)NC(=O)[C@H](CCC(N)=O)NC(=O)[C@H](CC(C)C)NC(=O)[C@H](Cc1ccc(O)cc1)NC(=O)[C@H](CCC(=O)O)NC(=O)[C@@H](N)CO)C(C)C)C(=O)N[C@@H](CCC(=O)O)C(=O)N[C@H](C(=O)N[C@H](C(=O)O)C(C)C)C(C)C [compound 651],6
3,CC(C)C[C@H](NC(=O)[C@H](Cc1ccc(O)cc1)NC(=O)[C@H](CC(N)=O)NC(=O)[C@H](CCC(=O)O)NC(=O)[C@@H](N)CCC(N)=O)C(=O)N[C@@H](CCC(=O)O)C(=O)N[C@@H](Cc1ccc(O)cc1)C(=O)N[C@@H](CCCNC(=N)N)C(=O)N[C@@H](CCC(N)=O)C(=O)N[C@H](C(=O)O)C(C)C [compound 653],6
4,CC[C@H](C)[C@H](NC(=O)[C@H](CC(C)C)NC(=O)[C@H](C)NC(=O)[C@H](CCCNC(=N)N)NC(=O)[C@@H]1CCCN1C(=O)CNC(=O)[C@H](Cc1c[nH]c2ccccc12)NC(=O)[C@H](CC(C)C)NC(=O)[C@H](Cc1ccccc1)NC(=O)[C@H](CCC(=O)O)NC(=O)[C@@H](N)Cc1ccc(O)cc1)C(=O)O [compound 654],6
5,CC(C)C[C@H](NC(=O)[C@@H](NC(=O)[C@@H](NC(=O)[C@H](CCC(=O)O)NC(=O)[C@@H](N)C(C)C)C(C)C)[C@@H](C)O)C(=O)NCC(=O)N[C@@H](CCC(=O)O)C(=O)N[C@H](C(=O)N1CCC[C@H]1C(=O)N[C@@H](C)C(=O)O)C(C)C [compound 656],5
6,CSCC[C@H](NC(=O)[C@H](CCCNC(=N)N)NC(=O)[C@@H]1CCCN1C(=O)CNC(=O)[C@H](CCC(=O)O)NC(=O)[C@@H](N)CCC(=O)O)C(=O)N[C@@H](Cc1ccccc1)C(=O)N1CCC[C@H]1C(=O)N[C@@H](CC(=O)O)C(=O)N[C@@H](CC(C)C)C(=O)O [compound 657],5
7,CSCC[C@H](NC(=O)[C@H](CO)NC(=O)[C@H](CC(C)C)NC(=O)[C@H](CCC(=O)O)NC(=O)[C@H](CCC(=O)O)NC(=O)[C@@H](N)Cc1c[nH]c2ccccc12)C(=O)N[C@@H](CC(C)C)C(=O)N[C@@H](CCC(=O)O)C(=O)N[C@H](C(=O)O)C(C)C [compound 680],4
8,CSCC[C@H](NC(=O)[C@H](CO)NC(=O)[C@H](CC(C)C)NC(=O)[C@H](CCC(=O)O)NC(=O)[C@@H](N)CCC(=O)O)C(=O)N[C@@H](CC(C)C)C(=O)N[C@@H](CCC(=O)O)C(=O)N[C@H](C(=O)N[C@@H](Cc1ccccc1)C(=O)O)C(C)C [compound 681],4
9,CC[C@H](C)[C@H](NC(=O)[C@H](Cc1c[nH]cn1)NC(=O)[C@@H]1CCCN1C(=O)[C@H](CCC(=O)O)NC(=O)CN)C(=O)N[C@@H](CO)C(=O)N[C@@H](Cc1ccc(O)cc1)C(=O)N1CCC[C@H]1C(=O)N1CCC[C@H]1C(=O)N[C@@H](CC(C)C)C(=O)O [compound 682],4
10,CC(C)C[C@H](NC(=O)[C@@H](NC(=O)[C@H](CO)NC(=O)[C@H](CO)NC(=O)[C@H](CO)NC(=O)[C@H](CO)NC(=O)[C@H](C)NC(=O)[C@@H](NC(=O)[C@H](CCC(N)=O)NC(=O)[C@H](CCC(N)=O)NC(=O)[C@H](CCC(=O)O)NC(=O)[C@@H](N)CCC(=O)O)[C@@H](C)O)[C@@H](C)O)C(=O)O [compound 686],3
11,CC(C)C[C@H](NC(=O)[C@H](CC(C)C)NC(=O)[C@H](CC(C)C)NC(=O)[C@H](Cc1ccccc1)NC(=O)[C@H](Cc1c[nH]cn1)NC(=O)[C@@H](NC(=O)[C@H](CC(C)C)NC(=O)[C@H](CCC(=O)O)NC(=O)[C@@H](N)C(C)C)C(C)C)C(=O)N[C@@H](CCCCN)C(=O)N[C@@H](Cc1ccc(O)cc1)C(=O)O [compound 689],3
12,CC[C@H](C)[C@H](NC(=O)[C@@H]1CCCN1C(=O)[C@@H](NC(=O)[C@@H](NC(=O)[C@H](CCC(=O)O)NC(=O)[C@@H](N)C(C)C)C(C)C)C(C)C)C(=O)N[C@@H](CO)C(=O)N[C@@H](Cc1c[nH]cn1)C(=O)N[C@@H](CC(C)C)C(=O)N[C@@H](Cc1ccc(O)cc1)C(=O)O [compound 692],3
13,CC(C)[C@H](NC(=O)[C@H](CO)NC(=O)[C@H](CC(=O)O)NC(=O)[C@H](CCC(=O)O)NC(=O)[C@H](CCCNC(=N)N)NC(=O)CNC(=O)[C@H](CCC(=O)O)NC(=O)[C@@H](N)Cc1ccccc1)C(=O)N[C@@H](Cc1ccccc1)C(=O)O [compound 693],3
14,CC(C)C[C@H](NC(=O)CNC(=O)[C@H](CCC(=O)O)NC(=O)[C@@H](N)CCC(=O)O)C(=O)N[C@@H](CCC(=O)O)C(=O)N[C@@H](C)C(=O)N[C@@H](CCCNC(=N)N)C(=O)NCC(=O)N[C@@H](CCC(=O)O)C(=O)N[C@@H](C)C(=O)O [compound 694],2
15,CSCC[C@H](NC(=O)[C@H](CCCNC(=N)N)NC(=O)[C@@H]1CCCN1C(=O)CNC(=O)[C@H](CCC(=O)O)NC(=O)[C@H](CCC(=O)O)NC(=O)[C@@H](N)CCC(=O)O)C(=O)N[C@@H](Cc1ccccc1)C(=O)N1CCC[C@H]1C(=O)N[C@@H](CC(=O)O)C(=O)N[C@@H](CC(C)C)C(=O)O [compound 697],2
16,CC[C@H](C)[C@H](NC(=O)[C@H](C)NC(=O)[C@H](C)NC(=O)[C@H](CCC(N)=O)NC(=O)[C@H](Cc1ccccc1)NC(=O)[C@H](CCC(=O)O)NC(=O)[C@@H](N)CO)C(=O)O [compound 698],2
17,CSCC[C@H](NC(=O)[C@H](CCC(=O)O)NC(=O)[C@H](C)NC(=O)[C@H](CCCCN)NC(=O)[C@@H](NC(=O)[C@@H](NC(=O)[C@@H]1CCCN1C(=O)[C@H](CCC(=O)O)NC(=O)[C@@H](N)CCCNC(=N)N)C(C)C)[C@@H](C)O)C(=O)N[C@@H](CC(C)C)C(=O)N[C@@H](CCC(=O)O)C(=O)N[C@@H](CO)C(=O)N[C@H](C(=O)O)C(C)C [compound 699],2
18,CC(C)[C@H](NC(=O)[C@H](CO)NC(=O)[C@H](CC(=O)O)NC(=O)[C@H](CCC(=O)O)NC(=O)[C@@H](N)CCCNC(=N)N)C(=O)N[C@@H](Cc1ccccc1)C(=O)N[C@@H](C)C(=O)O [compound 717],0
19,CC(C)C[C@H](NC(=O)[C@H](Cc1ccc(O)cc1)NC(=O)[C@H](CC(N)=O)NC(=O)[C@H](CCC(=O)O)NC(=O)[C@@H](N)CCC(N)=O)C(=O)N[C@@H](CCC(=O)O)C(=O)N[C@@H](Cc1ccc(O)cc1)C(=O)O [compound 718],0

# System: HLA-A3 supertype molecules
# Experiment: HLA-A3 supertype cross-binding (A*0301, A*1101, A*3101, A*3301, A*6801)
# Settings: not given
row,SMILES,No. A3 supertype alleles crossbound (200)
1,CC(C)C[C@H](NC(=O)CNC(=O)[C@H](Cc1ccccc1)NC(=O)[C@H](CC(=O)O)NC(=O)[C@@H](NC(=O)[C@@H](NC(=O)[C@@H](N)CCCCN)C(C)C)[C@@H](C)O)C(=O)N[C@@H](C)C(=O)N[C@@H](CCCNC(=N)N)C(=O)O,3

# Same assay, conditions: Table 20; binding affinity threshold of 200 nM or less
row,SMILES,No. A3 supertype alleles crossbound (200)
1,CC(C)C[C@H](NC(=O)[C@@H]1CCCN1C(=O)[C@H](CO)NC(=O)[C@H](C)N)C(=O)N[C@@H](CC(=O)O)C(=O)N[C@@H](CO)C(=O)N[C@H](C(=O)N[C@@H](Cc1ccccc1)C(=O)N[C@@H](Cc1ccc(O)cc1)C(=O)N[C@@H](CCCNC(=N)N)C(=O)O)[C@@H](C)O,3
2,CC(C)C[C@H](NC(=O)[C@@H](NC(=O)[C@H](CC(N)=O)NC(=O)[C@H](CO)NC(=O)[C@@H](NC(=O)[C@@H](N)Cc1ccccc1)C(C)C)[C@@H](C)O)C(=O)N[C@@H](C)C(=O)N[C@H](C(=O)NCC(=O)N[C@@H](CCCNC(=N)N)C(=O)O)[C@@H](C)O,3
3,CC[C@H](C)[C@H](N)C(=O)N[C@H](C(=O)N1CCC[C@H]1C(=O)N[C@@H](CO)C(=O)N[C@@H](Cc1ccc(O)cc1)C(=O)N[C@H](C(=O)N[C@@H](Cc1ccc(O)cc1)C(=O)N[C@@H](Cc1ccc(O)cc1)C(=O)N[C@@H](CCCNC(=N)N)C(=O)O)[C@@H](C)O)C(C)C,5
4,CC[C@H](C)[C@H](NC(=O)[C@@H](N)CCCCN)C(=O)N[C@H](C(=O)N[C@@H](CC(=O)O)C(=O)N[C@@H](Cc1ccccc1)C(=O)NCC(=O)N[C@@H](CC(C)C)C(=O)N[C@@H](C)C(=O)N[C@@H](CCCNC(=N)N)C(=O)O)[C@@H](C)O,3
5,CSCC[C@H](NC(=O)[C@H](CCCNC(=N)N)NC(=O)[C@H](CO)NC(=O)[C@H](Cc1ccccc1)NC(=O)[C@H](CCC(=O)O)NC(=O)[C@H](CO)NC(=O)[C@@H](NC(=O)[C@@H](N)CC(C)C)C(C)C)C(=O)N[C@@H](C)C(=O)N[C@@H](CCCNC(=N)N)C(=O)O,4
6,CC[C@H](C)[C@H](NC(=O)[C@H](CO)NC(=O)[C@H](CCC(=O)O)NC(=O)[C@H](CC(C)C)NC(=O)[C@H](C)NC(=O)[C@@H](N)CCSC)C(=O)N[C@@H](CC(C)C)C(=O)N[C@@H](CCCNC(=N)N)C(=O)N[C@@H](CCCNC(=N)N)C(=O)O,3
7,CC(C)C[C@H](NC(=O)[C@@H](NC(=O)[C@H](CC(C)C)NC(=O)[C@@H](NC(=O)[C@@H](N)CCCNC(=N)N)[C@@H](C)O)[C@@H](C)O)C(=O)N[C@@H](Cc1ccccc1)C(=O)N[C@@H](CC(N)=O)C(=O)N[C@H](C(=O)N[C@H](C(=O)N[C@@H](CCCNC(=N)N)C(=O)O)[C@@H](C)O)C(C)C,4
8,CC(C)C[C@H](NC(=O)[C@H](CC(C)C)NC(=O)[C@@H](NC(=O)[C@H](CC(C)C)NC(=O)[C@@H](NC(=O)[C@@H](N)CCCNC(=N)N)[C@@H](C)O)[C@@H](C)O)C(=O)N[C@@H](CO)C(=O)N[C@H](C(=O)N[C@H](C(=O)N[C@@H](CCCNC(=N)N)C(=O)O)[C@@H](C)O)C(C)C,3
9,CC(C)C[C@H](NC(=O)[C@@H](N)C(C)C)C(=O)N[C@@H](CCCNC(=N)N)C(=O)N[C@@H](CCC(=O)O)C(=O)N[C@@H](CC(N)=O)C(=O)N[C@H](C(=O)N[C@@H](CO)C(=O)N1CCC[C@H]1C(=O)N[C@@H](CCCCN)C(=O)O)[C@@H](C)O,2

# Reference: patent US20060094649A1, “Hla-a1,-a2,-a3,-a24,-b7, and-b44 tumor associated antigen peptides and compositions” (priority 2002, published 2006)
